This is an account of results in patent publication US20140265007A1, “CLEANSING BARS COMPRISING SUPERHYDROPHILIC AMPHIPHILIC COPOLYMERS AND METHODS OF USE THEREOF” (JOHNSON & JOHNSON CONSUMER COMPANIES. INC., priority 2013, published 2014).

A short description of this data set: Water solubility of hydrophobic reagent. In kind it is physicochemical. To be noted: in water at 23° C.

In the case of tetrapropenyl succinic anhydride [TPSA], the water solubility is given as 2-5%.
